This is a sample that favours compounds with a hit; in the whole collection about 1.5% have one here.
miR-122 sensor: inhibitors of miR-122 in Huh7 cells; activation (reporter increase), % at 12.5 µM; Huh7 miR-122 Renilla luciferase sensor, 48 h; neutral wells = 0, positive control = 100; 340,000 compounds, 0.3% hits;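 active = mean replicate activation score at least 90 and every replicate individually at or above 90; inconclusive = only one of the two criteria met; inactive = neither criterion met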;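 note: higher luciferase means less miR-122 activity so hits act as miR-122 inhibitors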
PGC1a acetyl inh: PGC1a acetylation modulation, inhibitor mode; U2OS PGC1a acetylation, AlphaScreen anti-acetyl-lysine; with virally co-expressed GCN5 acetyltransferase; inhibition, % at 15.6 µM; 350,000 compounds, 0.17% hits; AID 651687;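 active = every replicate shows inhibition of at least 40%; inconclusive = mean inhibition at least 40% but some replicate below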;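 note: 0% = neutral control wells and 100% = positive control wells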
HIV Env fusion: blocks HIV Env-driven cell-cell fusion; HeLa-JRFL Env/CEM21 cell fusion, luciferase; inhibition, % at 12.3 µM; 360,000 compounds, 1.1% hits; AID 651610;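 active = mean replicate inhibition score of at least 50 and every replicate individually at or above 50; inconclusive = only one of the two criteria met; inactive = mean below 50 and not all replicates reaching 50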;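 note: 0% = plate neutral controls and 100% = maraviroc near 300 nM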
Yeast UUG start: modulators of yeast start codon fidelity, primary screen, whole organism, S. cerevisiae, single point, plate reader; S. cerevisiae UUG-firefly luciferase reporter, luminescence/redox ratio; activity score, % at 18.7 µM; actives 0.13% (n = 350,000); AID 602363, 2012;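 active = replicate mean at a twofold rise or more, about +100% in these data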;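 also: firefly luciferase made from a UUG start codon reports start codon fidelity; reporter light over untreated wells divided by growth signal over untreated wells; some hits fall short of that in this replicate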
FN deposition inh: fibronectin deposition inhibition; AH1F fibroblasts, Alexa488-fibronectin deposition fluorescence, overnight; inhibition, % at 12.6 µM; 350,000 compounds, 0.086% hits; AID 743247;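 active = mean inhibition across replicates of 30% or more, regardless of how many single replicates reach that level; inconclusive = mean under 30% yet at least half of replicates reach 30%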;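 note: positive control wells lacked labelled fibronectin entirely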
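Assay system: AH1F fibroblast monolayer, labelled fibronectin deposition. Amount: 10000 cells per well. Also added: labelled fibronectin 24 nM. Compound: single-point pinned compound. Incubation: cell attachment 1 h, compound and FN exposure overnight. Detection: fluorescence after three HBSS washes, excitation 485 nm, emission 525 nm. Read-out: inhibition of fibronectin deposition signal.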
Cneo AK release: Cryptococcus neoformans lysis via adenylate kinase release; C. neoformans lysis, adenylate kinase release luminescence, 4 h; normalised: neutral wells 0, clomiphene wells 100; lysis activity, % at 15 µM; 360,000 compounds, 0.2% hits; AID 651654;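 active = mean lysis activity across replicates of at least 80%, whatever share of replicates individually reach that level; inactive = mean lysis activity below 80%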
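Schedule: static 4 h at 37 °C with compound, 1 h detection; system: C. neoformans cells; benchmarks: Clomiphene as positive control; buffer or medium: fresh YPD medium; measure: luminescence rise reflecting yeast cell lysis; measured by: luminescent adenylate kinase detection reagent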
* = called active by the depositor; ? = inconclusive; / = not tested or not shown; [ ] = remark or other dose.

Each structure is followed by: miR-122 sensor | PGC1a acetyl inh | HIV Env fusion | Yeast UUG start | FN deposition inh | Cneo AK release
1) COc1cc(C)c(C(C)C)cc1S(=O)(=O)NC1CC(C)(C)NC(C)(C)C1
    128* | / | 31 | -12 | 0 | -1
2) CCOc1cc(C)c(Cl)cc1S(=O)(=O)NC1CC(C)(C)NC(C)(C)C1
    181* | / | -36 | / | 1 | /
3) CCOc1cc(S(=O)(=O)NC2CC(C)(C)NC(C)(C)C2)ccc1Cl
    11 | -9 | -14 | -8 | 18 | -3
4) Cc1ccc(S(=O)(=O)N/N=C/c2c[nH]c3ccccc23)cc1
    9 | 105* | 0 | -4 | 1 | -2
5) O=C(O)c1ccc(N/N=C/c2c[nH]c3ccccc23)cc1
    -4 | 3 | 59* | -44 | 0 | 0
6) O=C(O)c1ccc(S(=O)(=O)NN=Cc2c[nH]c3ccccc23)cc1
    / | / | -1 | / | / | /
7) Oc1c(C(c2ccccc2)N2CCOCC2)ccc2ccccc12 (stereo not given)
    -5 | 14 | 72* | -19 | 5 | 1
8) O=C(CN1CCN(C(c2ccccc2)c2ccccc2)CC1)N1CCOCC1
    0 | 15 | / | -19 | / | 4
9) COc1ccc(CNC(=O)C[C@@H]2C=C[C@H](NC(=O)c3ccc4c(c3)OCO4)[C@H](CO)O2)cc1
    2[16.7 µM] | -1 | 8[16.7 µM] | -10 | -3 | -7
10) C[C@@H]1CCCCO[C@@H](CN(C)C(=O)Nc2cccc3ccccc23)[C@@H](C)CN([C@H](C)CO)C(=O)c2cc(NS(=O)(=O)c3ccccc3)ccc2O1
    8[16.7 µM] | 0 | -3[16.7 µM] | 18 | -5 | 95*
11) C[C@@H]1CCCCO[C@H](CN(C)C(=O)Nc2cccc3ccccc23)[C@H](C)CN([C@H](C)CO)C(=O)c2cc(NS(=O)(=O)c3ccccc3)ccc2O1
    16[16.7 µM] | -8 | 62*[16.7 µM] | 18 | -12 | 73
12) CCN(c1ccc(NC(=O)CCNC(=O)c2ccco2)cc1)C(C)C
    -1 | 3 | -2 | -18 | -10 | 0
13) CCOc1ccc(NC(=O)CC(Cc2cc(C)cc(C)c2)C(=O)O)cc1 (stereo not given)
    -2 | 8 | 15 | 0 | -6 | 4
14) C[C@H](CO)N1C[C@H](C)[C@@H](CN(C)Cc2cccc3c2OCCCO3)OCc2ccccc2-c2ccccc2C1=O
    / | 6 | -26[16.7 µM] | / | -8 | -3
15) Cc1ccc(OCCNC(=O)Cn2cnc3c(=O)n(C)c(=O)n(C)c32)cc1C
    -6 | -24 | 24 | -9 | -8 | 4

Arranged by molar mass (low to high): some entries from above.
Each structure is followed by: miR-122 sensor | PGC1a acetyl inh | HIV Env fusion | Yeast UUG start | FN deposition inh | Cneo AK release
7) Oc1c(C(c2ccccc2)N2CCOCC2)ccc2ccccc12 (stereo not given)
    -5 | 14 | 72* | -19 | 5 | 1
12) CCN(c1ccc(NC(=O)CCNC(=O)c2ccco2)cc1)C(C)C
    -1 | 3 | -2 | -18 | -10 | 0
11) C[C@@H]1CCCCO[C@H](CN(C)C(=O)Nc2cccc3ccccc23)[C@H](C)CN([C@H](C)CO)C(=O)c2cc(NS(=O)(=O)c3ccccc3)ccc2O1
    16[16.7 µM] | -8 | 62*[16.7 µM] | 18 | -12 | 73

The listing continues.
Each structure is followed by: miR-122 sensor | PGC1a acetyl inh | HIV Env fusion | Yeast UUG start | FN deposition inh | Cneo AK release
16) COCCCNC(=S)NNC(=O)c1ccc(S(=O)(=O)N2CCC(C)CC2)cc1
    / | / | -12 | / | -10 | /
17) OCC1OC(n2cnc3c(/C=C(\O)c4ccccc4)ncnc32)C(O)C1O (stereo not given)
    27 | -6 | 55* | / | / | /
18) CN(C)c1ncnc2c1ncn2C1OC(CO)C(O)C1O (stereo not given)
    -31 | ? | / | -17 | / | 1
19) CCC1(c2ccccc2)NC(=O)N(CC(=O)Nc2cc(S(=O)(=O)N3CCCCC3)ccc2OC(C)C)C1=O (stereo not given)
    11 | -4 | 98* | -14 | -6 | 3
20) Cc1ccc2c(c1)[C@H]1[C@H](CO2)[C@H](c2ccccc2)[C@]2(C)C(=O)N(Cc3ccc(Cl)cc3)CC(=O)N12
    -2 | / | 65* | -5 | -16 | 9
21) Cc1ccc2c(c1)[C@H]1[C@H](CO2)[C@H](c2ccccc2)[C@]2(C)C(=O)N(Cc3ccc(F)cc3)CC(=O)N12
    3 | -4 | 62* | -8 | 1 | 2
22) COc1ccc2c(c1)OC[C@H]1[C@H]2N2C(=O)CN(Cc3ccc(C)cc3)C(=O)[C@@]2(C)[C@H]1c1ccccc1
    2 | / | 87* | 0 | 2 | -2
23) COc1ccc(CN2CC(=O)N3[C@H]4c5cc(C)ccc5OC[C@@H]4[C@H](c4ccccc4)[C@]3(C)C2=O)cc1
    -1 | -9 | 6 | 6 | -10 | 3
24) CCCCn1c(N)c(N(CCOC)C(=O)C2CCN(S(=O)(=O)c3ccc(C)c(C)c3)CC2)c(=O)[nH]c1=O
    -6 | 8 | 4 | -8 | / | 2
25) CNC(=O)C[C@@H]1CC[C@H]2[C@@H](COC[C@H](O)CN2C(=O)Nc2ccc3c(c2)OCO3)O1
    -5[16.7 µM] | 7 | / | / | -11 | 89*

Source: PubChem (Broad Institute)
